This note sets out measurements from patent publication US10882853B2.

The test system of assay [1] is human lung adenocarcinoma cells HCC78. Description: Inhibition on the proliferation of tumor cells (CCK8), HCC78. Particulars: read-out: HCC78 IC50, Table 3 (FIG. 1), 72 h.
In assay [2] the test system is human colon cancer cells HCT116. Description: Inhibition on the proliferation of tumor cells (CCK8), HCT116. To be noted: read-out: HCT116 IC50, 72 h.
Assay [3] has as its system human ovarian cancer cells SK-OV-3. Description: Inhibition on the proliferation of tumor cells (CCK8), SK-OV-3. To be noted: read-out: SK-OV-3 IC50, 72 h.
Assay [4] deals with human lung adenocarcinoma cells A549. Description: Inhibition on the proliferation of tumor cells (CCK8), A549. Particulars: read-out: A549 IC50, 72 h.

Each structure is given as a SMILES string.

`COc1cc2c(Oc3ccc(NC(=O)C4(C(=O)Nc5ccc(F)cc5)CC4)cc3F)ccnc2cc1OCCC[N+]1([O-])CCOCC1`: the IC50 (in general, the concentration that gives 50% inhibition) turned out to be 118 nM in assay [1], 3.1 µM in assay [2], 11.6 µM in assay [3] and 4.92 µM in assay [4].
